Laboratory results taken from patent US20260108479A1 (Belhaven BioPharma Inc., priority 2024, published 2026).

Test: Study 101: plasma epinephrine pharmacokinetics
Format: in vivo, human
Parameters: unit not given beside the values
Details: 0.5 mg IM
Description: Each patient was provided each treatment of the trial with 72-hour washout periods between each treatment, beginning with a 3.5 mg intranasal dose, followed by a 0.3 mg intramuscular dose, followed by a 0.5 mg intramuscular dose, and concluding with a 5.5 mg intranasal dose, with a safety follow-up performed 3 to 5 days after the final dose was administered. The primary endpoints of the study were pharmacokinetic measurements and assessments of comparative bioavailability, while the secondary endpoints were safety concerns and pharmacodynamic assessments.

Cmax (GeoMean): 382.3
SMILES: CNC[C@H](O)c1ccc(O)c(O)c1 [Epinephrine, epinephrine]
